Several values for one entry are separate records, joined by “and”; a condition that tells them apart may be missing. Equal entries are not always repeated. The list shows a part of the results, in another mix than the full data.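 Note: values are percent growth. 100 is the growth of untreated cells, values between 100 and 0 indicate rising inhibition; between -100 and 0 indicates cell death.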 Activity calls are given as the source filed them. How the source made its calls: active means growth percent below 10; inactive means the rest.
What was measured:
Assay in all cases: NCI-60 one-dose screen, 48 h (100 = growth as untreated, 0 = no growth, -100 = all killed)
Settings in all cases: 10 µM
SK-MEL-2 melanoma = test system: SK-MEL-2 melanoma
EKVX NSCLC = test system: EKVX NSCLC
SN12C renal = test system: SN12C renal
UO-31 renal = test system: UO-31 renal
TK-10 renal = test system: TK-10 renal
ACHN renal = test system: ACHN renal
CAKI-1 renal = test system: CAKI-1 renal
A498 renal = test system: A498 renal
HL-60(TB) leukemia = test system: HL-60(TB) leukemia
CCRF-CEM leukemia = test system: CCRF-CEM leukemia

| SMILES | growth (SK-MEL-2 melanoma) | growth (EKVX NSCLC) | growth (SN12C renal) | growth (UO-31 renal) | growth (TK-10 renal) | growth (ACHN renal) | growth (CAKI-1 renal) | growth (A498 renal) | growth (HL-60(TB) leukemia) | growth (CCRF-CEM leukemia) |
| --- | --- | --- | --- | --- | --- | --- | --- | --- | --- | --- |
| CCN(CC)CCOC(=O)C(O)(c1ccccc1)c1cc(C)c(C)c(C)c1C (centres undefined) | inactive: 109% | inactive: 89.9% | inactive: 102% | inactive: 50.7% | inactive: 101% | inactive: 90.1% | inactive: 81.5% | inactive: 88.9% | inactive: 82.8% | inactive: 96.7% |
| CN(CCO)CCCl.O=[N+]([O-])c1cc([N+](=O)[O-])c(O)c([N+](=O)[O-])c1 | inactive: 103% | inactive: 102% | inactive: 102% | inactive: 88.6% | inactive: 89% | inactive: 88.6% | inactive: 98.8% | – | inactive: 90.1% | inactive: 97.3% |
| COc1ccc(C(O)(C(=O)OCCN2CCCCC2)c2ccc(OC)cc2)cc1 | inactive: 104% | inactive: 101% | inactive: 112% | inactive: 82.4% | inactive: 111% | inactive: 96.7% | inactive: 87.4% | inactive: 87.6% | inactive: 125% | inactive: 94.3% |
| OCCSCCO | inactive: 105% | inactive: 96.7% | inactive: 95% | inactive: 82.6% | inactive: 105% | inactive: 105% | inactive: 86.8% | – | inactive: 89.9% | inactive: 110% |
| O=[N+]([O-])OCCOc1ccc([N+](=O)[O-])cc1[N+](=O)[O-] | inactive: 105% | inactive: 63.5% | inactive: 101% | inactive: 86.7% | inactive: 106% | inactive: 102% | inactive: 90.4% | inactive: 82.3% | inactive: 96.6% | inactive: 97.6% |
| NC(=NCCN/C(N)=N/[N+](=O)[O-])N[N+](=O)[O-] | inactive: 88.4% | inactive: 94.7% | inactive: 99.9% | inactive: 96.2% | inactive: 89.6% | inactive: 113% | inactive: 99.3% | inactive: 88.1% | inactive: 94.7% | inactive: 85.1% |
| O=C(O)C1(O)c2ccccc2-c2ccccc21 | inactive: 101% and inactive: 97.4% | inactive: 91% | inactive: 86.7% and inactive: 83.4% | inactive: 84.5% and inactive: 86.6% | inactive: 89.8% and inactive: 122% | inactive: 109% and inactive: 105% | inactive: 106% | inactive: 104% and inactive: 92.2% | inactive: 73.4% and inactive: 70.7% | inactive: 104% |
| O=[N+]([O-])c1ccc(OP2(=O)COCCO2)cc1 (centres undefined) | inactive: 109% | inactive: 97.7% | inactive: 96% | inactive: 93.9% | inactive: 115% | inactive: 105% | inactive: 100% | inactive: 108% | inactive: 91.5% | inactive: 95.9% |
| O=[N+]([O-])c1ccc(Oc2c([N+](=O)[O-])cc([N+](=O)[O-])cc2[N+](=O)[O-])cc1 | inactive: 109% | inactive: 94.2% | inactive: 113% | inactive: 86.6% | inactive: 123% | inactive: 103% | inactive: 94.3% | inactive: 88.7% | inactive: 105% | inactive: 104% |
| n1nc(-c2nn[nH]n2)n[nH]1 | inactive: 98.5% | inactive: 117% | inactive: 101% | inactive: 81.8% | inactive: 127% | inactive: 108% | inactive: 98.2% | inactive: 100% | inactive: 102% | inactive: 89.5% |
| O=[N+]([O-])c1cc([N+](=O)[O-])c(Oc2ccccc2)c([N+](=O)[O-])c1 | inactive: 105% | inactive: 97.1% | inactive: 98.6% | inactive: 84% | inactive: 115% | inactive: 107% | inactive: 90% | inactive: 100% | inactive: 99.3% | inactive: 91.9% |
| Nc1cc([As](Cl)Cl)cc(N)c1O | inactive: 89.9% | inactive: 55.9% | inactive: 80.2% | inactive: 83% | inactive: 76.1% | inactive: 97.8% | inactive: 60.8% | inactive: 83.2% | inactive: 62.6% | inactive: 20.7% |
| CC[N+](C)(CC)Cc1cc(Cc2ccccc2)ccc1OC(=O)N(C)C | inactive: 125% | inactive: 94.2% | inactive: 97.6% | inactive: 91.1% | inactive: 106% | inactive: 99.9% | inactive: 103% | inactive: 94.7% | inactive: 96.6% | inactive: 102% |
| CCN(CC)CCOC(=O)C(O)(c1ccccc1)c1cc(C)cc(C)c1C (centres undefined) | inactive: 112% | inactive: 92.7% | inactive: 97.6% | inactive: 79.2% | inactive: 106% | inactive: 100% | inactive: 89.6% | inactive: 88.3% | inactive: 91.6% | inactive: 105% |
| CN(C)CCS | inactive: 119% and inactive: 112% | inactive: 88.6% | inactive: 97.4% and inactive: 103% | inactive: 98.7% and inactive: 72.4% | inactive: 121% and inactive: 110% | inactive: 117% and inactive: 100% | inactive: 104% | inactive: 111% | inactive: 114% and inactive: 99.9% | inactive: 97.3% and inactive: 104% |
| O=[N+]([O-])OCC(O[N+](=O)[O-])C(CO[N+](=O)[O-])O[N+](=O)[O-] (centres undefined) | inactive: 102% | inactive: 121% | inactive: 105% | inactive: 79.4% | inactive: 121% | inactive: 107% | inactive: 112% | – | inactive: 115% | inactive: 104% |
| Cc1c([N+](=O)[O-])c(C)c([N+](=O)[O-])c(Nc2c([N+](=O)[O-])c(C)c([N+](=O)[O-])c(C)c2[N+](=O)[O-])c1[N+](=O)[O-] | active: -44.9% | active: -5.12% | active: 7.25% | active: -16.2% | inactive: 13.1% | inactive: 18.5% | active: -20.1% | active: -47.3% | active: -34.3% | – |
| O=C(Cl)c1c([N+](=O)[O-])cc([N+](=O)[O-])cc1[N+](=O)[O-] | inactive: 109% | inactive: 86.6% | inactive: 83.1% | inactive: 67.5% | inactive: 103% | inactive: 28.9% | active: -14.2% | inactive: 114% | inactive: 27.3% | inactive: 39.5% |
| Nc1cc([N+](=O)[O-])cc([N+](=O)[O-])c1O | inactive: 100% and inactive: 97.6% | inactive: 100% and inactive: 98% | inactive: 97% and inactive: 98.5% | inactive: 93.4% and inactive: 101% | inactive: 101% and inactive: 93.7% | inactive: 99.6% and inactive: 113% | – | inactive: 131% and inactive: 108% | inactive: 94% and inactive: 96.8% | inactive: 103% and inactive: 96.7% |
| O=[N+]([O-])c1cc([N+](=O)[O-])c(NCCO)c([N+](=O)[O-])c1 | inactive: 100% | inactive: 93.5% | inactive: 88.8% | inactive: 66.6% | inactive: 115% | inactive: 48.8% | inactive: 80.7% | inactive: 77.3% | inactive: 96.5% | inactive: 67.9% |
| O=C1C(O)=C([N+](=O)[O-])C(=O)C(O)=C1[N+](=O)[O-] | inactive: 102% | inactive: 101% | inactive: 103% | inactive: 68.1% | inactive: 100% | inactive: 99.3% | inactive: 92.2% | – | inactive: 102% | inactive: 96.8% |
| Cc1ccc(Nc2c([N+](=O)[O-])cc([N+](=O)[O-])cc2[N+](=O)[O-])cc1 | inactive: 106% | inactive: 83% | inactive: 89% | inactive: 62.9% | inactive: 113% | inactive: 77.2% | inactive: 80% | inactive: 76.7% | inactive: 94% | inactive: 76.3% |
| Cc1c([N+](=O)[O-])c(C)c([N+](=O)[O-])c(C)c1[N+](=O)[O-] | inactive: 109% | inactive: 83.7% | inactive: 111% | inactive: 78.8% | inactive: 104% | inactive: 98.4% | inactive: 92.7% | inactive: 106% | inactive: 105% | inactive: 98.7% |
| O=[N+]([O-])c1cc([N+](=O)[O-])c(Nc2nnnn2CCO)c([N+](=O)[O-])c1 | inactive: 108% | inactive: 99.4% | inactive: 104% | inactive: 97% | inactive: 119% | inactive: 117% | inactive: 104% | inactive: 102% | inactive: 88.5% | inactive: 107% |
| O=[N+]([O-])c1cc([N+](=O)[O-])c(O)c([N+](=O)[O-])c1.c1ccc(Cc2ccncc2)cc1 | inactive: 116% | inactive: 107% | inactive: 101% | inactive: 97.5% | inactive: 96.4% | inactive: 103% | inactive: 99.9% | inactive: 90.4% | inactive: 124% | inactive: 116% |
| O=C(OCCN1CCCCCCCC1)C(O)(c1ccccc1)c1ccccc1 | inactive: 105% | inactive: 109% | inactive: 98.3% | inactive: 88.5% | inactive: 103% | inactive: 93.6% | inactive: 101% | inactive: 106% | inactive: 100% | inactive: 109% |
